The target in one test is CD82 (mouse) (mouse) (UniProt P40237). As to the kind of experiment: IP with anti CD82 antibodies, mouse muscle tissue, mass spectrometry.
Test [1] addresses CD82 polypeptide (human) (human). As to the kind of experiment: IP with anti CD82 antibodies, human myotubes, mass spectrometry.

As for ACTA_MOUSE (from UniProt P62737), in the test with CD82 (mouse) (mouse), the Total came out at 2 and the Unique turned out to be 2.
As to ACTS_MOUSE (from UniProt P68134), in the test with CD82 (mouse) (mouse), the Total was 2 and the Unique was determined as 2.
In the test with CD82 (mouse) (mouse), H2B1K_MOUSE (from UniProt Q8CGP1) returned a Total of 2 and a Unique of 2.
In test [1], “euk elongation factor 2 (from UniProt P13639)” had a Total of 3 and a Unique of 3.

The values are drawn from patent US20220119489A1, “COMPOSITIONS AND METHODS FOR TREATING MUSCULAR DYSTROPHY AND RELATED DISORDERS” (CHILDREN'S MEDICAL CENTER CORPORATION, priority 2019, published 2022).
